Data reported in BindingDB's records for doi:10.1021/bi1006354 (Beactica, 2010).
Several values for one entry are separate records, joined by “and”; a condition that tells them apart may be missing. Identical values can stand only once.

The chains behind the UniProt entries cited, without tags or fusion partners.
UniProt P58154, whole entry: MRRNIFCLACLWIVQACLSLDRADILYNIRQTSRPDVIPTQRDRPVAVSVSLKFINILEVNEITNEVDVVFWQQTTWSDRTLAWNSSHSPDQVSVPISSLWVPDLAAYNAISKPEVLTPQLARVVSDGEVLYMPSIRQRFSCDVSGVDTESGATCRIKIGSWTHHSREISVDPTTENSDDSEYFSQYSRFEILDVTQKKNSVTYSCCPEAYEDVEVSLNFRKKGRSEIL

Biological target: Acetylcholine-binding protein (Lymnaea stagnalis, UniProt P58154)
Assay: Interaction Assay
Conditions: pH 7.4; 25 °C

With `CN1CCC[C@H]1c1cccnc1` [CAS_29790-52-1] the Kd was 40.7 nM and 310 nM.
